Reference: PubChem BioAssay (NCI)
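Cells were grown in 96-well plates and exposed to each compound for 48 hours at five concentrations; endpoints were interpolated linearly between bracketing concentrations, or set to the highest concentration if not reached. At the GI50, growth is halved. At the TGI there is no net growth.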

Assays:
Test in all cases: growth of human tumour cells (NCI), 48 h
HL-60(TB) leukemia = test system: HL-60(TB) leukemia
HCC-2998 colon = test system: HCC-2998 colon
HOP-92 NSCLC = test system: HOP-92 NSCLC
COLO 205 colon = test system: COLO 205 colon
IGROV1 ovarian = test system: IGROV1 ovarian
HT29 colon = test system: HT29 colon
SK-MEL-5 melanoma = test system: SK-MEL-5 melanoma
NCI-H23 lung = test system: NCI-H23 lung
A498 renal = test system: A498 renal
NCI-H460 lung = test system: NCI-H460 lung
UO-31 renal = test system: UO-31 renal
SN12C renal = test system: SN12C renal
SF-295 CNS = test system: SF-295 CNS
HOP-62 NSCLC = test system: HOP-62 NSCLC
M14 melanoma = test system: M14 melanoma
RPMI-8226 leukemia = test system: RPMI-8226 leukemia
HS 578T breast = test system: HS 578T breast
TK-10 renal = test system: TK-10 renal
PC-3 prostate = test system: PC-3 prostate
T-47D breast = test system: T-47D breast
K-562 leukemia = test system: K-562 leukemia
SK-MEL-2 melanoma = test system: SK-MEL-2 melanoma
OVCAR-3 ovarian = test system: OVCAR-3 ovarian
HCT-15 colon = test system: HCT-15 colon
SW-620 colon = test system: SW-620 colon
NCI-H226 lung = test system: NCI-H226 lung
MDA-MB-435 = test system: MDA-MB-435
DU-145 prostate = test system: DU-145 prostate
U251 CNS = test system: U251 CNS
NCI/ADR-RES ovarian = test system: NCI/ADR-RES ovarian
CAKI-1 renal = test system: CAKI-1 renal
SR leukemia = test system: SR leukemia
ACHN renal = test system: ACHN renal
LOX IMVI melanoma = test system: LOX IMVI melanoma
A549 NSCLC = test system: A549 NSCLC
MOLT-4 leukemia = test system: MOLT-4 leukemia
OVCAR-8 ovarian = test system: OVCAR-8 ovarian
HCT-116 colon = test system: HCT-116 colon
NCI-H522 lung = test system: NCI-H522 lung
SNB-19 CNS = test system: SNB-19 CNS
MDA-N = test system: MDA-N
MDA-MB-231 breast = test system: MDA-MB-231 breast
OVCAR-5 ovarian = test system: OVCAR-5 ovarian
SK-MEL-28 melanoma = test system: SK-MEL-28 melanoma
UACC-257 melanoma = test system: UACC-257 melanoma
CCRF-CEM leukemia = test system: CCRF-CEM leukemia
MCF7 breast = test system: MCF7 breast
SK-OV-3 ovarian = test system: SK-OV-3 ovarian
OVCAR-4 ovarian = test system: OVCAR-4 ovarian

C[S+](N)(=O)CCC(N)P(=O)(O)O.O=[N+]([O-])c1cc([N+](=O)[O-])c([O-])c([N+](=O)[O-])c1
GI50 (HL-60(TB) leukemia): > 100 µM | TGI (HL-60(TB) leukemia): > 100 µM | GI50 (HCC-2998 colon): > 100 µM | TGI (HCC-2998 colon): > 100 µM | GI50 (HOP-92 NSCLC): > 100 µM | TGI (HOP-92 NSCLC): > 100 µM | GI50 (COLO 205 colon): > 100 µM | TGI (COLO 205 colon): > 100 µM | GI50 (IGROV1 ovarian): > 100 µM | TGI (IGROV1 ovarian): > 100 µM | GI50 (HT29 colon): > 100 µM | TGI (HT29 colon): > 100 µM | GI50 (SK-MEL-5 melanoma): > 100 µM | TGI (SK-MEL-5 melanoma): > 100 µM | GI50 (NCI-H23 lung): > 100 µM | TGI (NCI-H23 lung): > 100 µM | GI50 (A498 renal): > 100 µM | TGI (A498 renal): > 100 µM | GI50 (NCI-H460 lung): > 100 µM | TGI (NCI-H460 lung): > 100 µM | GI50 (UO-31 renal): > 100 µM | TGI (UO-31 renal): > 100 µM | GI50 (SN12C renal): > 100 µM | TGI (SN12C renal): > 100 µM | GI50 (SF-295 CNS): > 100 µM | TGI (SF-295 CNS): > 100 µM | GI50 (HOP-62 NSCLC): > 100 µM | TGI (HOP-62 NSCLC): > 100 µM | GI50 (M14 melanoma): 70.8 µM | TGI (M14 melanoma): > 100 µM | GI50 (RPMI-8226 leukemia): > 100 µM | TGI (RPMI-8226 leukemia): > 100 µM | GI50 (HS 578T breast): > 100 µM | TGI (HS 578T breast): > 100 µM | GI50 (TK-10 renal): > 100 µM | TGI (TK-10 renal): > 100 µM | GI50 (PC-3 prostate): > 100 µM | TGI (PC-3 prostate): > 100 µM | GI50 (T-47D breast): > 100 µM | TGI (T-47D breast): > 100 µM | GI50 (K-562 leukemia): > 100 µM | TGI (K-562 leukemia): > 100 µM | GI50 (SK-MEL-2 melanoma): > 100 µM | TGI (SK-MEL-2 melanoma): > 100 µM | GI50 (OVCAR-3 ovarian): > 100 µM | TGI (OVCAR-3 ovarian): > 100 µM | GI50 (HCT-15 colon): > 100 µM | TGI (HCT-15 colon): > 100 µM | GI50 (SW-620 colon): > 100 µM | TGI (SW-620 colon): > 100 µM | GI50 (NCI-H226 lung): > 100 µM | TGI (NCI-H226 lung): > 100 µM | GI50 (MDA-MB-435): 41.5 µM | TGI (MDA-MB-435): > 100 µM | GI50 (DU-145 prostate): > 100 µM | TGI (DU-145 prostate): > 100 µM | GI50 (U251 CNS): > 100 µM | TGI (U251 CNS): > 100 µM | GI50 (NCI/ADR-RES ovarian): > 100 µM | TGI (NCI/ADR-RES ovarian): > 100 µM | GI50 (CAKI-1 renal): > 100 µM | TGI (CAKI-1 renal): > 100 µM | GI50 (SR leukemia): > 100 µM | TGI (SR leukemia): > 100 µM | GI50 (ACHN renal): > 100 µM | TGI (ACHN renal): > 100 µM | GI50 (LOX IMVI melanoma): 39.8 µM | TGI (LOX IMVI melanoma): > 100 µM | GI50 (A549 NSCLC): > 100 µM | TGI (A549 NSCLC): > 100 µM | GI50 (MOLT-4 leukemia): > 100 µM | TGI (MOLT-4 leukemia): > 100 µM | GI50 (OVCAR-8 ovarian): > 100 µM | TGI (OVCAR-8 ovarian): > 100 µM | GI50 (HCT-116 colon): > 100 µM | TGI (HCT-116 colon): > 100 µM | GI50 (NCI-H522 lung): 57.3 µM | TGI (NCI-H522 lung): > 100 µM | GI50 (SNB-19 CNS): > 100 µM | TGI (SNB-19 CNS): > 100 µM | GI50 (MDA-N): 24 µM | TGI (MDA-N): 65.2 µM | GI50 (MDA-MB-231 breast): > 100 µM | TGI (MDA-MB-231 breast): > 100 µM | GI50 (OVCAR-5 ovarian): > 100 µM | TGI (OVCAR-5 ovarian): > 100 µM | GI50 (SK-MEL-28 melanoma): 73.5 µM | TGI (SK-MEL-28 melanoma): > 100 µM | GI50 (UACC-257 melanoma): > 100 µM | TGI (UACC-257 melanoma): > 100 µM | GI50 (CCRF-CEM leukemia): > 100 µM | TGI (CCRF-CEM leukemia): > 100 µM | GI50 (MCF7 breast): > 100 µM | TGI (MCF7 breast): > 100 µM | GI50 (SK-OV-3 ovarian): > 100 µM | TGI (SK-OV-3 ovarian): > 100 µM | GI50 (OVCAR-4 ovarian): > 100 µM | TGI (OVCAR-4 ovarian): > 100 µM
